Reference: patent US7678787B2, “Pyrrolobenzodiazepine pyridine carboxamides and derivatives as follicle-stimulating hormone receptor antagonists” (Wyeth, priority 2005, dated 2010)

The chains behind the UniProt entries cited, without tags or fusion partners. Residues count along the entry.
UniProt P16473, 21-764: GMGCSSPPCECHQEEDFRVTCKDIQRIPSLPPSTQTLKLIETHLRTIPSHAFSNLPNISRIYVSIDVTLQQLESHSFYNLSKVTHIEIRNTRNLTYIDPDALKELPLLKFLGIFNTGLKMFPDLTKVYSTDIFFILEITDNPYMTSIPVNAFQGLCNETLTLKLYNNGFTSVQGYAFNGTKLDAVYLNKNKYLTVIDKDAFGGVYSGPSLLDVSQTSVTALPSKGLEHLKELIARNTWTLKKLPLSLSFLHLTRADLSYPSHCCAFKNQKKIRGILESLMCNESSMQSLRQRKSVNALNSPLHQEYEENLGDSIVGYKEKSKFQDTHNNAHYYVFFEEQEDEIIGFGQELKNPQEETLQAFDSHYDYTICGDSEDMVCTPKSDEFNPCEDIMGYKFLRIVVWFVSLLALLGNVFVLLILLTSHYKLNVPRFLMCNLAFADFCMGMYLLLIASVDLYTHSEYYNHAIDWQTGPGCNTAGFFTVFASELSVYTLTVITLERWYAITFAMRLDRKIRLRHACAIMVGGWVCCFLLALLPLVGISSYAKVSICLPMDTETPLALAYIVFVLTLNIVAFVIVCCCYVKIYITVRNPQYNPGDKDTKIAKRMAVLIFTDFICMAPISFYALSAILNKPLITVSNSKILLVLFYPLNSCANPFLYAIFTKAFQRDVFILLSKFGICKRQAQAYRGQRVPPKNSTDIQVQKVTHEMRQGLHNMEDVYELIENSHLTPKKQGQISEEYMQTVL

Experiments:
Format in all cases: cell-based
human FSH receptor = target: T1, human FSH receptor (Homo sapiens, UniProt P23945); assay: FSH receptor-dependent CRE-luciferase reporter gene assay (CHO FSH-R 6CRE-Luc cells); details: positive control concentration
T1 construct: host or cells: CHO-K1 (CHO FSH-R 6CRE-Luc, 1D7 cells)
T1 sequence (P23945 18-695): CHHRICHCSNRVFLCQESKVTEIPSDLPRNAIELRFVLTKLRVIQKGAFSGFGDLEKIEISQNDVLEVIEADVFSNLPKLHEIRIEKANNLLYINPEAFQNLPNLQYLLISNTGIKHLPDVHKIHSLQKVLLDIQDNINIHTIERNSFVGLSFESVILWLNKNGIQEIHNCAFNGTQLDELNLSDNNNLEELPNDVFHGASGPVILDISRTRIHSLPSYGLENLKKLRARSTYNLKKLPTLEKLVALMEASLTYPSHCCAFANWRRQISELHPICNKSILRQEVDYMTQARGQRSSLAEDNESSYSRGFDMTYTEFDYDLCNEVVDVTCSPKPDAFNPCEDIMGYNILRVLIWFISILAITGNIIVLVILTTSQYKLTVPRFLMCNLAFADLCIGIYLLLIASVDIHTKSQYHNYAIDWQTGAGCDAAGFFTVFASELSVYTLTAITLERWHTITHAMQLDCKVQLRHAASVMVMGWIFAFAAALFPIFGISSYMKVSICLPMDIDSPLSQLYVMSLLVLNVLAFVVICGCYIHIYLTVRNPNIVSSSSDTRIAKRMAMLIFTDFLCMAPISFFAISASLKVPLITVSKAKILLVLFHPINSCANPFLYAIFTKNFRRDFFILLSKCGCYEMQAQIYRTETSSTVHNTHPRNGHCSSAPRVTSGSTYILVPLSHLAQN
Source text: FOLLICLE-STIMULATING HORMONE RECEPTOR-DEPENDENT CRE-LUCIFERASE REPORTER GENE ASSAY FOR THE IDENTIFICATION OF FOLLICLE-STIMULATING HORMONE (FSH) ANTAGONISTS
A Chinese hamster ovarian cell line that stably produces the human FSH receptor and a luciferase reporter gene regulated by cAMP response elements was used to identify and determine the relative potencies of human FSH receptor antagonists. See for example, Kelton, C. A., et al. Mol. Cell. Endocrinol. 89:141-151 (1992), Tilly, J. L., et al. Endocrinology 131:799-806(1992), and George, S. E., et al. J. Biomol. Screening 2:235-240 (1997). […]
The treated cells were incubated for 4 hours at 37° C. in a humidified incubator with 5% CO2/95% air. At the end of the incubation period, luciferase activity was measured by chemiluminescence using a commercially available kit (LucScreen, Tropix, Inc., Bedford, Mass.) according to the manufacturer's specifications, except that Buffer 1 and Buffer 2 were mixed together in equal proportion prior to the addition of 100 μl of the combined reagents to each well. Chemiluminescence was detected using a luminometer (EG & G Berthold Microlumat LB 96 P, Wallac, Gaithersburg, Md.) with chemiluminescence measured for 1 sec/well. Background luminescence was measured for each well prior to the addition of the LucScreen reagent. […]

hFSH-R = target: T2, hFSH-R (Homo sapiens, UniProt P23945); assay: cAMP accumulation (RIA) in CHO-3D2 cells (hFSH-R), hFSH-induced; details: agonist mode, four-parameter logistic equation
T2 construct: expressed in transfected cells; host or cells: CHO-3D2 cells (CHO-K1 parental line)
T2 sequence (P23945 18-695): T1 sequence (P23945 18-695)
Experimental: IN VITRO BIO-ASSAY OF AGONISTS AND ANTAGONISTS TO THE FSH RECEPTOR. SELECTIVITY AND DEPENDENCY OF AGONISTS AND ANTAGONISTS TO THE FSH RECEPTOR
This assay was used to verify in vitro potency, efficacy, selectivity and receptor dependency of hits found to inhibit an FSH-R-CRE-luciferase driven reporter.
Compound Vehicle: Stock compounds were solubilized in 100% DMSO (Sigma-Aldrich Chemical Co., St. Louis, Mo.) at a concentration of 30 mM. The compounds subsequently were diluted in sterile assay medium consisting of Opti-MEM® I (Invitrogen/Life Technologies, Carlsbad, Calif.) with 0.1% (w/v) BSA (Sigma-Aldrich) prior to use in the bio-assay. The final concentration of DMSO in the assay was 0.1%. […]
Assay: On the day of the assay, cells were washed three times with 100 μl/well of assay medium consisting of Opti-MEM® I (Invitrogen/Life Technologies) with 0.1% (w/v) BSA (Sigma-Aldrich). […] Reactions were terminated by the addition of 50 μl of 0.2N hydrochloric acid to each well and cAMP-accumulation was measured by radioimmunoassay (RIA) using a commercially available kit (Amersham Biosciences, Piscataway, N.J.).
All test compounds were evaluated in a dose-response paradigm ranging from 0.01 to 30 μM. Controls and test compounds were evaluated in quadruplicate in a 96-well format. […] The ability of the compounds to inhibit the cAMP-accumulation induced by hFSH was evaluated by RIA.
In every assay the EC20 concentration was calculated and only those experiments in which the EC20 concentrations were equal to 1.85±0.4 ng/mL were accepted as valid. […]
cAMP accumulation is expressed as fmol/ml. cAMP accumulation in the agonist mode, or the ability of the compound to inhibit hFSH-, hTSH-, or forskolin-induced cAMP-accumulation in the antagonist mode, was compared to the appropriate negative and positive controls. Data were analyzed by one-way analysis of variance and significant differences between treatments and control determined by Least Significant Difference test. […]

hTSH-R = target: T3, hTSH-R (Homo sapiens, UniProt P16473); assay: Selectivity: cAMP accumulation in CHO-25 (hTSH-R) cells; details: CHO-25 cells
T3 construct: expressed in transfected cells; host or cells: CHO-25 cells
Experimental: cAMP accumulation assays using CHO-25 (hTSH-R) cells were performed as described above for the CHO-3D2 cells with the following exceptions: CHO-25 cells were plated at a density of 50,000 cells/well (2). All test compounds were evaluated in a dose-response paradigm ranging from 0.01 to 30 μM. Controls and test compounds were evaluated in quadruplicate. Cells were treated with vehicle, hTSH at EC20 (5 nM; hTSH>98% pure, Cortex Biochem, Inc.), or the compounds in the presence or absence of the hTSH at its EC20 concentration. The ability of the compounds to inhibit cAMP-accumulation induced by hTSH was evaluated by RIA.
Along with the test compounds, hTSH was also run as a positive control in the agonist mode using concentrations ranging from 0.01 μM-1000 μM.
cAMP accumulation is expressed as fmol/ml. cAMP accumulation in the agonist mode, or the ability of the compound to inhibit hFSH-, hTSH-, or forskolin-induced cAMP-accumulation in the antagonist mode, was compared to the appropriate negative and positive controls. Data were analyzed by one-way analysis of variance and significant differences between treatments and control determined by Least Significant Difference test.

Row | Substance | EC50, CRE-luciferase (human FSH receptor) | EC100, CRE-luciferase (human FSH receptor) | apparent EC20, cAMP accumulation (hFSH-R) | apparent EC50, cAMP accumulation (hFSH-R) | apparent EC80, cAMP accumulation (hFSH-R) | EC20, cAMP accumulation (hTSH-R)
1 | hFSH: Purified human FSH (>98%) purchased from Cortex Biochem, Inc.; positive control | 0.4 ng/mL | 1000 ng/mL | 1.85 ng/mL | 6.03 ng/mL | 22.5 ng/mL | –
2 | hTSH: hTSH >98% pure, Cortex Biochem, Inc.; positive control in selectivity assay | – | – | – | – | – | 5 nM
